# In article PMC2918654 (Bioorganic & medicinal chemistry, 2010):
# Biological target: δ-opioid receptors (Rattus norvegicus, UniProt P33533)
# Experiment: Competitive binding assay, δ-opioid receptors, [3H]deltorphin II
# Parameters: species or system Sprague-Dawley rats
# Settings: read-out: KD of radioligand; radioligand for δ-opioid receptors, 45.0 Ci/mmol
substance,measurement,value
H-Tyr-D-Ala-Phe-Asp-Val-Val-Gly-NH2 (YAFDVVG) [[^3H]deltorphin II],Kd,1.4 nM
